# Literature values in patent US11185540B2, “Extended release compositions of opioid antagonists and phosphodiesterase 5 inhibitors” (Pardon My Scotch, LLC, priority 2017, dated 2021).
# Chains of the proteins cited; added tags and fusions are not shown. Lines headed by an entry give the natural chain unless they say otherwise; changes in a name come on top.
# UniProt Q9HCR9: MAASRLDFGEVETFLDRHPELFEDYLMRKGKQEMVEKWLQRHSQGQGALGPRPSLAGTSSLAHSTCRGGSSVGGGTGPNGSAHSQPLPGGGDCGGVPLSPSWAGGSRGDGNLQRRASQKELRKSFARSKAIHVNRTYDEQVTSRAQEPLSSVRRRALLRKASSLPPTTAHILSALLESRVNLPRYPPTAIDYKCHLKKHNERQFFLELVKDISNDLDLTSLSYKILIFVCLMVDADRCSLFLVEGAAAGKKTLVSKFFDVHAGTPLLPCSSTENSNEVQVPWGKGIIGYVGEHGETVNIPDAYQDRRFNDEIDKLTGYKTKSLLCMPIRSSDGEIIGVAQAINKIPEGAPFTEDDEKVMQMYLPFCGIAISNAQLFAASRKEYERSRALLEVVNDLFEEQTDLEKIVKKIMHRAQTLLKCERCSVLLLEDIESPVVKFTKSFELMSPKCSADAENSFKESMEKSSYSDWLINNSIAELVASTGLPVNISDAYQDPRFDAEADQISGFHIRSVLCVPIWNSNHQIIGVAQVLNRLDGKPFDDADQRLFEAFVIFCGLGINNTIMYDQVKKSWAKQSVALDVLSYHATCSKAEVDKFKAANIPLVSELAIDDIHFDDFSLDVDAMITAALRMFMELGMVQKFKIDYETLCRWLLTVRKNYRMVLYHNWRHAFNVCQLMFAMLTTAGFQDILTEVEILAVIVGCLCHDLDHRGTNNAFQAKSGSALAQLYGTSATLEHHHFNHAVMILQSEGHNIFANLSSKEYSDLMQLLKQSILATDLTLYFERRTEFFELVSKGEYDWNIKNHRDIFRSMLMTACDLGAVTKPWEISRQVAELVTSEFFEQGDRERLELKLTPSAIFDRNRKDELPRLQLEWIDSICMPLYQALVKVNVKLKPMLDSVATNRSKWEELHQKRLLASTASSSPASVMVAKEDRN
# Target: PDE11 (Homo sapiens, UniProt Q9HCR9)
compound,measurement,value
"CN1CC(=O)N2[C@H](c3ccc4c(c3)OCO4)c3[nH]c4ccccc4c3C[C@@H]2C1=O [tadalafil, pyrazino[1′,2′:1,6]pyrido[3,4-b]indole-1,4-dione, 6-(1,3-benzodioxol-5-yl)-2,3,6,7,12,12a-hexahydro-2-methyl-, (6R,12aR)-]",Inhibition of PDE11,inhibit
